Test [1] concerns the target T1, Vitamin D-binding protein (Homo sapiens) (UniProt P02774).
T1 sequence (whole entry): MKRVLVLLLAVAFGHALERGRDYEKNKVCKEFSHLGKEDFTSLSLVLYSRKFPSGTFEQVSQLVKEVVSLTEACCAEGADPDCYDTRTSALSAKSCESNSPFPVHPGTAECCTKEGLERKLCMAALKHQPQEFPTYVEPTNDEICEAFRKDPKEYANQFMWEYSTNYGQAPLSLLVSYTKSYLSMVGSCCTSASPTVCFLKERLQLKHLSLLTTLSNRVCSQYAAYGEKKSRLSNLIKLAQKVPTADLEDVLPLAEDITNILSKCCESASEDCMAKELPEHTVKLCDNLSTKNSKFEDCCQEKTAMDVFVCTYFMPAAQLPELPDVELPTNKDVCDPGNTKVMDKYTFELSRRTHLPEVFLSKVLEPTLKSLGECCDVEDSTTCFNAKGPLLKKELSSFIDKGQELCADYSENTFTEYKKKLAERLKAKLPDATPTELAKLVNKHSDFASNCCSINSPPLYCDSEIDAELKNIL
Nature of the test: Binding affinity for Vitamin D binding protein relative to 1-alpha, 25-dihydroxyvitamin D3. The following applies: Bos taurus.

The target of test [2] is T2, Vitamin D3 receptor (Bos taurus) (UniProt Q28037).
T2 sequence (whole entry): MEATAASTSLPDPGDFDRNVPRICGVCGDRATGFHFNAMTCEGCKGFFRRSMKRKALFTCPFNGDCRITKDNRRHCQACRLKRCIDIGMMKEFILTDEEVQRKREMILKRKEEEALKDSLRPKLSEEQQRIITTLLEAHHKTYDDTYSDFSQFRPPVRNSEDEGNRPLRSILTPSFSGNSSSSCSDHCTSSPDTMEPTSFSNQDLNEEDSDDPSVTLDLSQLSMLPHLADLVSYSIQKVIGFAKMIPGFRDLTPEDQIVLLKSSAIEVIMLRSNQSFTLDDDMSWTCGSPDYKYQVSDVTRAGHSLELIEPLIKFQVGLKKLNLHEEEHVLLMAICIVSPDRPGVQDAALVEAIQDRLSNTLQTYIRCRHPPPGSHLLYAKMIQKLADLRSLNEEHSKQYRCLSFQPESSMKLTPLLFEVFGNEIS
Nature of the test: Binding affinity for bovine thymus Vitamin D3 receptor (VDR) relative to 1-alpha, 25-dihydroxyvitamin D3.

Drawing on ChEMBL document CHEMBL1130618, “A novel and practical route to A-ring enyne synthon for 1 alpha,25-dihydroxyvitamin D3 analogs: synthesis of A-ring diastereomers of 1 alpha,25-dihydroxyvitamin D2 and 3-methyl-1,25-dihydroxyvitamin D3” (1998), this text covers Relative potency for 8 compounds.

Turning to `C=C1/C(=C\C=C2/CCC[C@]3(C)[C@@H]([C@H](C)CCCC(C)(C)O)CC[C@@H]23)C[C@@H](O)[C@H](C)[C@@H]1O`, the Relative potency in test [1] turned out to be 68; in test [2] it was 400.
For the compound `C=C1/C(=C\C=C2/CCC[C@]3(C)[C@@H]([C@H](C)CCCC(C)(C)O)CC[C@@H]23)C[C@H](O)[C@H](C)[C@H]1O`, the Relative potency is 1200 in test [1] and less than 0.1 in test [2].
On the same counts, the results for `C=C1/C(=C\C=C2/CCC[C@]3(C)[C@@H]([C@H](C)CCCC(C)(C)O)CC[C@@H]23)C[C@@H](O)[C@@H](C)[C@H]1O` are 1000 and less than 0.1.
Turning to `C=C1/C(=C\C=C2/CCC[C@]3(C)[C@@H]([C@H](C)CCCC(C)(C)O)CC[C@@H]23)C[C@H](O)[C@@H](C)[C@@H]1O`, the values for the Relative potency in test [1] and in test [2] were 21 and 0.3, respectively.
As for `C=C1/C(=C\C=C2/CCC[C@]3(C)[C@@H]([C@H](C)CCCC(C)(C)O)CC[C@@H]23)C[C@H](O)[C@@H](C)[C@H]1O`, the figures for the Relative potency in test [1] and in test [2] were 1300 and 0.8, respectively.
Consider `C=C1/C(=C\C=C2/CCC[C@]3(C)[C@@H]([C@H](C)CCCC(C)(C)O)CC[C@@H]23)C[C@H](O)[C@H](C)[C@@H]1O`, for which the Relative potency in test [1] is 45; in test [2], 4.
For `C=C1/C(=C\C=C2/CCC[C@]3(C)[C@@H]([C@H](C)CCCC(C)(C)O)CC[C@@H]23)C[C@@H](O)[C@@H](C)[C@@H]1O`, the Relative potency in test [1] was determined as 79; in test [2], 13.
On the same counts, the results for `C=C1/C(=C\C=C2/CCC[C@]3(C)[C@@H]([C@H](C)CCCC(C)(C)O)CC[C@@H]23)C[C@@H](O)[C@H](C)[C@H]1O` are 200 and less than 0.1.
